Data taken from patent publication US20230372307A1, “COMBINATION THERAPY USING BAX ACTIVATOR AGENT” (Albert Einstein College of Medicine, priority 2020, published 2023).

Protein sequences, listed by entry. Tags and fused reporters are not part of them.
UniProt Q07812, whole entry: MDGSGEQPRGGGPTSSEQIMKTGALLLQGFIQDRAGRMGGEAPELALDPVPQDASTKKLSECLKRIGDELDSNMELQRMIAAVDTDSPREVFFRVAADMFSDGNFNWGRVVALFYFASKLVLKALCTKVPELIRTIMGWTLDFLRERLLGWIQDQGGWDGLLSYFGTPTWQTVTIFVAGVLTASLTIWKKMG

Assays:
BAX:BCL-XL complexes = molecular target: T1, BAX:BCL-XL complexes (Homo sapiens, UniProt Q07812); test: BAX co-immunoprecipitation and immunoblotting; format: cell-based; conditions: 4 hrs treatment
T1 construct: endogenous in cells; host or cells: BxPC-3, SW480, Calu-6

cellular BAX = cellular BAX (Homo sapiens, UniProt Q07812); conditions: BxPC-3 cells, 40 μM, 15 min
BAX [1] = molecular target: T2, BAX (Homo sapiens, UniProt Q07812); conditions: for concentration achieving cytosolic BAX translocation to the mitochondria: 4 hr
[2] = oral 200 mg/Kg daily dose, mice
BAX [3] = molecular target: T2, BAX; test: BIM SAHB-BAX competition fluorescence polarization assay (FPA); format: binding; set-up: serial dilutions of full-length BAX; made in house; host or cells: Escherichia coli
Protocol: PRODUCTION OF RECOMBINANT BAX PROTEIN. […] BAX wild type was purified by size-exclusion chromatography in a buffer containing 20 mM HEPES pH 7.2, 150 mM KC1, 1 mM DTT. Superdex 75 10/300 GL and 200 10/300 GL (GE Healthcare) columns were used.
FLUORESCENCE POLARIZATION BINDING As SAYS. […] Firstly, direct binding isotherms were generated by incubating FITC-BIM SAHBA2 (50 nM) with serial dilutions of full-length BAX and fluorescence polarization was measured at 20 min on a F200 PRO microplate reader (TECAN). Subsequently, in competition assays, a serial dilution of small-molecule or acetylated BIM SAHBA2 (Ac-BIM SAHB) was combined with FITC-BIM SAHBA2 (50 nM), followed by the addition of recombinant protein at EC75 concentration, as determined by the direct binding assay (BAX: 500 nM). EC50 and IC50 values were calculated by nonlinear regression analysis of competitive binding curves using Graphpad Prism software.

| SMILES | BAX:BCL-XL complexes by BAX co-immunoprecipitation (BAX:BCL-XL complexes) | melting temperature of cellular BAX (CETSA) (cellular BAX) | concentration achieving cytosolic BAX translocation to the mitochondria (BAX [1]; BxPC-3 cells (printed BxPC-2)) [µM] | concentration promoting cytosolic BAX translocation to the mitochondria (BAX [1]; BxPC-3 cells, 18 hrs) [µM] | concentration achieving cytosolic BAX translocation to the mitochondria (BAX [1]; SW480 cells) [µM] | tolerability / survival [2] | IC50 (BAX [3]) [nM] |
| --- | --- | --- | --- | --- | --- | --- | --- |
| Cc1nc(N/N=C2\C(=O)N(c3nc(-c4ccccc4)cs3)N=C2c2ccccc2)sc1C [BTSA1.2, 4-(2-(4,5-dimethylthiazol-2-yl)hydrazono)-5-phenyl-2-(4-phenyl-thiazol-2-yl)-2,4-dihydro-3H-pyrazol-3-one] | only BAX:BCL-XL complexes but not BAX:MCL-1 complexes increased upon BTSA1.2 treatment | significant increase in the melting temperature of cellular BAX | 10 | 2.5 to 5 | 10 | mice survived 5 daily doses without obvious toxic effects |  |
| O=C1/C(=N\Nc2nccs2)C(c2ccccc2)=NN1c1nc(-c2ccccc2)cs1 [BTSA1] |  |  |  |  |  |  | 159 |

Read-outs that look alike come from different tables or passages of the source.
